In ChEMBL document CHEMBL1127591, “Novel prodrugs of alkylating agents derived from 2-fluoro- and 3-fluorobenzoic acids for antibody-directed enzyme prodrug therapy” (J Med Chem, 1994):

Test: Chemical half-life in percholate at 37 degree was determined
Type: ADME

SMILES	T1/2 [h]
O=C(O)c1ccc(N(CCCl)CCCl)cc1	5.4
O=C(O)c1ccc(N(CCCl)CCCl)c(F)c1	1.2
O=C(O)c1ccc(N(CCCl)CCCl)cc1F	20.7
